SMILES strings stand for the structures.

Chains of the proteins cited; added tags and fusions are not shown.
UniProt P10632, whole entry: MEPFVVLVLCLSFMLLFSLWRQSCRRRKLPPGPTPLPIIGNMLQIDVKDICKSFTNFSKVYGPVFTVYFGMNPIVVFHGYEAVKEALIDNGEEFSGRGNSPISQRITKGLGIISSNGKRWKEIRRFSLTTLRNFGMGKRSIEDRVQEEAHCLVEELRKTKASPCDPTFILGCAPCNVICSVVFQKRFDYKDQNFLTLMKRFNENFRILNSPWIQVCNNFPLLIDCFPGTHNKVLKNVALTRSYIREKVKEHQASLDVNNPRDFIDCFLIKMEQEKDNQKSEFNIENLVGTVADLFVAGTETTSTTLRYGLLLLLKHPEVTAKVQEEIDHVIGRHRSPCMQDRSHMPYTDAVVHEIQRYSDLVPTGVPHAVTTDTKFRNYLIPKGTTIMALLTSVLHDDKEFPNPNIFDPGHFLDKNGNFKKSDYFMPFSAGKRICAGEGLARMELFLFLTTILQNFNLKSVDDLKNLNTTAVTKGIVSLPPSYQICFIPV

Results on 1 compound are retold here after US20220348569A1 (priority 2021, published 2022).

The data set has as its target CYP2C8 (Homo sapiens, UniProt P10632). The settings on record: 0.370 μM.

As to `O=C(O)c1cc(-c2ccc(/C=C3\SC(=S)N(CCc4ccccc4)C3=O)o2)ccc1Cl` [Compound 1, (Z)-2-Chloro-5-(5-((4-oxo-3-phenethyl-2-thioxothiazolidin-5-ylidene)methyl)furan-2-yl)benzoic acid], the “% of Control Enzyme Activity (n = 1)” value is listed as 87.8%.
